Source: PubChem BioAssay AID2805 (Sanford-Burnham Center for Chemical Genomics, 2010)
The list shows a part of the results, in another mix than the full data. Calls of active or inactive are those of the source.

Tested on: intestinal alkaline phosphatase [Mus musculus]
Test: activators of mouse IAP, primary screen, biochemical, luminescence, uHTS (AID 2805)
Conditions: muIAP, CDP-Star luminescence, 30 min; at 10 µM; stronger effect = higher value; 1 = vehicle-only enzyme signal, 0 = enzyme-free wells
In short: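 Assay system: mouse IAP enzyme / Compound: DMSO-dissolved test compounds / Timing: 30 min, room temperature / Measured by: luminescence from enzymatic CDP-Star hydrolysis / Control set: DMSO-only wells, enzyme-free buffer wells as negative control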

Compound | activation factor
CCOc1ncccc1C(=O)NCC1(N2CCOCC2)CCCCC1 | inactive: 1.03
CN1CCC(Nc2ccc(F)c(Cl)c2)CC1 | inactive: 1.05
CCCOc1ccc(C(=O)NCC2(N(C)C)CCCCC2)cc1 | inactive: 1.07
CC(C)(C)OC(=O)N1CCC(Nc2ccccc2)CC1 | inactive: 1.01
O=C(O)C1(Nc2ccccc2)CCN(Cc2ccccc2)CC1 | inactive: 0.91
CCC(CO)(C(=O)OC1CN2CCC1CC2)c1ccccc1 (configuration not stated) | inactive: 1.04
COc1cccc(C(=O)N(c2cc(C)cc(C)c2)C2CCN(C(=O)OC(C)(C)C)CC2)c1 | inactive: 0.987
COc1cc(OC)cc(C(=O)NCC2(N3CCOCC3)CCCCC2)c1 | inactive: 0.941
CCCOc1ccc(C)cc1CN(CCCl)CCCl | inactive: 0.97
CN1CCC(Nc2ccc(Cl)cc2)CC1 | inactive: 1.05
COc1cc(OC)cc(C(=O)NCC2(N3CCCCC3)CCCCC2)c1 | inactive: 1.08
Cc1ccc(C(=O)NCC2(N3CCCCC3)CCCCC2)o1 | inactive: 0.917
Fc1ccccc1NC1CCN(Cc2ccccc2)CC1 | inactive: 1.03
CCN1CCC(Nc2cccc(F)c2)CC1 | inactive: 0.875
O=C(NCC1(N2CCCCC2)CCCCC1)c1ccco1 | inactive: 1.04
CN(C)c1ccc(C(=O)NCC2(N3CCCCC3)CCCCC2)cc1 | inactive: 1
CC(C)(C)OC(=O)N1CCC(N(C(=O)c2ccccc2)c2ccc(Cl)cc2)CC1 | inactive: 1.02
N#Cc1ccc(C(=O)NCC2(N3CCCCC3)CCCCC2)cc1 | inactive: 0.992
c1ccc(CN2CCC(Nc3ccccc3)CC2)cc1 | inactive: 0.942
CCCN1CCC(Nc2cc(OC)cc(OC)c2)CC1 | inactive: 0.966
CN(C)C1(CNC(=O)c2cccc(C#N)c2)CCCCC1 | inactive: 1.03
O=C(NCC1(N2CCOCC2)CCCCC1)c1cc(Br)ccc1Cl | inactive: 1.1
COc1cc(C(=O)NCC2(N3CCOCC3)CCCCC2)cc(OC)c1C | inactive: 1.11

Compound | activation factor
COc1ccc(C(=O)NCC2(N3CCOCC3)CCCCC2)cc1OC | inactive: 1.1
N/C(=N\O)c1c(N)no[n+]1[O-] | inactive: 1.05
CCOC(=O)N1CCC(Nc2ccc(C)cc2)CC1 | inactive: 0.983
CCc1cc(C(=O)NCC2(N3CCCCC3)CCCCC2)sc1C | inactive: 0.997
O=C(OC1CN2CCC1CC2)C1c2ccccc2C=Cc2ccccc21 (configuration not stated) | inactive: 0.983
COc1ccc(CN(CCCl)CCCl)cc1Cl | inactive: 0.961
CN(C)c1cccc(C(=O)NCC2(N3CCCCC3)CCCCC2)c1 | inactive: 1.1
CC(C)c1ccc(NC2CCN(C(=O)OC(C)(C)C)CC2)cc1 | inactive: 0.996
COc1cc(OC)c(C(=O)NCC2(N(C)C)CCCCC2)cc1OC | inactive: 1.01
O=C(NCC1(N2CCOCC2)CCCCC1)c1cc(F)c(F)cc1Cl | inactive: 0.993
CN1CCC(Nc2cccc(F)c2)CC1 | inactive: 1
O=C(NCC1(N2CCCCC2)CCCCC1)c1cncc(Br)c1 | inactive: 0.936
O=C(NCC1(N2CCCCC2)CCCCC1)c1ccc(OC(F)F)cc1 | inactive: 0.975
CSc1ccc(C(=O)NCC2(N3CCOCC3)CCCCC2)cc1 | inactive: 1.07
O=C(NCC1(N2CCCCC2)CCCCC1)c1cccc([N+](=O)[O-])c1 | inactive: 0.978
CCN1CCC(Nc2ccc(Cl)cc2)CC1 | inactive: 0.989
N#CC1(Nc2ccccc2)CCN(CCc2ccccc2)CC1 | inactive: 0.963
O=C(NCC1(N2CCCCC2)CCCCC1)c1cccc(C(F)(F)F)c1 | inactive: 1.03
CC(C)c1ccc(C(=O)NCC2(N3CCOCC3)CCCCC2)cc1 | inactive: 1.02
COc1ccc(NC2CCN(C(=O)OC(C)(C)C)CC2)cc1 | inactive: 0.954
CN1CCN(CCOC(=O)C(O)(c2ccccc2)c2ccccc2)CC1 | inactive: 1.08
O=C(NCC1(N2CCOCC2)CCCCC1)c1cc(=O)[nH]c2ccccc12 | inactive: 1.08
COc1cc(C(=O)NCC2(N3CCCCC3)CCCCC2)ccc1OC(F)F | inactive: 1

Compound | activation factor
CCOc1ccc(C)cc1CN(CCCl)CCCl | inactive: 1.1
CCCCOc1ccc(C(=O)NCC2(N3CCOCC3)CCCCC2)cc1 | inactive: 1.04
O=C(NCC1(N2CCCCC2)CCCCC1)c1ccc(F)cc1 | inactive: 1.01
CCOC(=O)N1CCC(Nc2ccc(F)cc2)CC1 | inactive: 1.04
COc1ccc(NC2CCN(CCc3ccccc3)CC2)c(OC)c1 | inactive: 1.05
CCOC(=O)N1CCC(Nc2cccc(C)c2)CC1 | inactive: 1.1
Cc1ccc(OCC(C)C)c(CN(CCCl)CCCl)c1 | inactive: 0.992
O=C(NCC1(N2CCCCC2)CCCCC1)c1ccc(=O)[nH]c1 | inactive: 0.954
O=C(NCC1(N2CCCCC2)CCCCC1)c1cccs1 | inactive: 0.891
COc1ccc(C(=O)NCC2(N3CCCCC3)CCCCC2)cc1 | inactive: 0.978
CC(C)(C)OC(=O)N1CCC(N(C(=O)c2ccccc2)c2ccc(F)cc2)CC1 | inactive: 1.03
COc1ccc(C(=O)NCC2(N3CCCCC3)CCCCC2)c(OC)c1OC | inactive: 1.09
CSc1ccccc1C(=O)NCC1(N2CCCCC2)CCCCC1 | inactive: 1.01
O=C(NCC1(N2CCOCC2)CCCCC1)c1cc2ccccc2o1 | inactive: 0.923
O=C(NCC1(N2CCCCC2)CCCCC1)c1ccc(Cl)nc1 | inactive: 1.12
Cc1cc(C)cc(N(C(=O)c2ccccc2)C2CCN(C(=O)OC(C)(C)C)CC2)c1 | inactive: 1.05
CCOC(=O)N1CCC(Nc2ccc(OC)cc2)CC1 | inactive: 1.12
N#CC1(Nc2ccccc2)CCN(Cc2ccccc2)CC1 | inactive: 1.02
O=C(NCC1(N2CCCCC2)CCCCC1)c1ccc(Cl)s1 | inactive: 1.01
O=C(OC1CN2CCC1CC2)C1c2ccccc2Oc2ccccc21 (configuration not stated) | inactive: 0.923
COc1ccc(Cl)cc1C(=O)NCC1(N2CCOCC2)CCCCC1 | inactive: 0.954
